Assay [1] deals with FL-SMARCA4 (Homo sapiens, UniProt P51532). In words: SMARCA4 ATPase activity assay (ADP-Glo, chicken mononucleosome substrate). The method, then: (§1) General Materials. Adenosine 5′-triphosphate disodium salt hydrate (ATP), Bicine, bovine skin gelatin (BSG), dimethylsulfoxide (DMSO), doxorubicin, glycerol, HEPES, NP-40, phenylmethanesulfonyl fluoride (PMSF), Tris-HCl, Tris(2-carboxyethyl)phosphine hydrochloride solution (TCEP) and Tween 20 were commercially available.
(§2) Substrates. Chicken erythrocyte mononucleosomes were prepared from fresh chicken blood collected into anticoagulant and filtered through cheesecloth. The filtered chicken blood was diluted in buffer A (10 mM Tris-HCl, pH 7.4, 10 mM NaCl, 3 mM MgCl2) and centrifuged at 500 g for 15 minutes to collect the erythrocytes. Erythrocyte nuclei were harvested by resuspending the pellets in buffer A containing 0.3% NP-40 detergent. The mixture was stirred with a magnetic bar for 10 mins and centrifuged at 4000 g for 10 minutes. Resuspension, stirring and centrifugation was repeated twice more before the final nuclei pellet was resuspended in buffer A+0.3% NP-40 and stored at −80° C. until purification. For nucleosome purification, nuclei aliquots were rapidly thawed and washed five times with buffer B (10 mM Tris-HCl, pH 7.4, 1 mM CaCl2), 1 mM PMSF) and collected by centrifugation at 2800 g for 10 minutes. Pellets were resuspended in buffer B and treated with 100 U/mL micrococcal nuclease for 40 minutes at 37° C. The reaction was terminated by the addition of 2 mM EDTA and was centrifuged at 2800 g for 10 minutes. The nuclei were then lysed by resuspending the pellet in 1 mM EDTA and 1 mM PMSF and passing the mixture through a 22G needle 4 to 5 times. The solution was then centrifuged at 15,000 g for 20 minutes and the supernatant was collected. The remaining pellet was lysed through the syringe twice more and the supernatants were pooled after centrifugation. The pooled supernatants were further purified by size exclusion chromatography (GE Sephacryl S300 HR 50/100) in buffer C (10 mM HEPES, pH 7.5, 10 mM KCl, 1 mM EDTA, 1 mM PMSF, 10% glycerol). Fractions were analyzed by agarose gel electrophoresis and SDS-PAGE and fractions containing mononucleosomes were pooled and stored at −80° C.
The SMARCA2 or SMARCA4 ATPase assays were identical. The SMARCA2 or SMARCA4 ATPase assays were performed in a buffer consisting of 20 mM Bicine (pH 7.5), 10 mM KCl, 1 mM MgCl2, 1 mM TCEP, 0.005% BSG, and 0.002% Tween 20, prepared on the day of use. Compounds in 100% DMSO were 3-fold serially diluted to produce a 10 point curve for IC50 determination and 0.2 uL were transferred into polypropylene 384-well V-bottom plates (Greiner) using an Echo liquid handler (Labcyte). DMSO (0.2 uL) was added to Columns 11, 12, 23, 24, rows A-H for the maximum signal control and 0.2 uL doxorubicin, a known DNA intercalator, was added to columns 11, 12, 23, 24, rows I-P for the minimum signal control. The SMARCA2 or SMARCA4 enzyme (10 uL) was added to the compounds and allowed to incubate with the compounds for 30 min at room temperature. The SMARCA2 or SMARCA4 ATPase assay was initiated by the addition of 10 uL chicken mononucleosome and ATP mixture (final volume=20 uL). […] The ADP product generated from the SMARCA2 or SMARCA4 ATPase reaction was determined via luminescence intensity.
Where signal is luminescence intensity or Cy3/Cy5 ratio in the assay well, and min and max are the respective minimum and maximum signal controls. […]
A general note: In ADP-Glo the light output rises with the ADP produced.

Chains of the proteins cited; added tags and fusions are not shown. A line that says so, or that is headed by a name, gives the form on record, which may keep a tag or linker. Residues count along the entry.
UniProt P51532, whole entry: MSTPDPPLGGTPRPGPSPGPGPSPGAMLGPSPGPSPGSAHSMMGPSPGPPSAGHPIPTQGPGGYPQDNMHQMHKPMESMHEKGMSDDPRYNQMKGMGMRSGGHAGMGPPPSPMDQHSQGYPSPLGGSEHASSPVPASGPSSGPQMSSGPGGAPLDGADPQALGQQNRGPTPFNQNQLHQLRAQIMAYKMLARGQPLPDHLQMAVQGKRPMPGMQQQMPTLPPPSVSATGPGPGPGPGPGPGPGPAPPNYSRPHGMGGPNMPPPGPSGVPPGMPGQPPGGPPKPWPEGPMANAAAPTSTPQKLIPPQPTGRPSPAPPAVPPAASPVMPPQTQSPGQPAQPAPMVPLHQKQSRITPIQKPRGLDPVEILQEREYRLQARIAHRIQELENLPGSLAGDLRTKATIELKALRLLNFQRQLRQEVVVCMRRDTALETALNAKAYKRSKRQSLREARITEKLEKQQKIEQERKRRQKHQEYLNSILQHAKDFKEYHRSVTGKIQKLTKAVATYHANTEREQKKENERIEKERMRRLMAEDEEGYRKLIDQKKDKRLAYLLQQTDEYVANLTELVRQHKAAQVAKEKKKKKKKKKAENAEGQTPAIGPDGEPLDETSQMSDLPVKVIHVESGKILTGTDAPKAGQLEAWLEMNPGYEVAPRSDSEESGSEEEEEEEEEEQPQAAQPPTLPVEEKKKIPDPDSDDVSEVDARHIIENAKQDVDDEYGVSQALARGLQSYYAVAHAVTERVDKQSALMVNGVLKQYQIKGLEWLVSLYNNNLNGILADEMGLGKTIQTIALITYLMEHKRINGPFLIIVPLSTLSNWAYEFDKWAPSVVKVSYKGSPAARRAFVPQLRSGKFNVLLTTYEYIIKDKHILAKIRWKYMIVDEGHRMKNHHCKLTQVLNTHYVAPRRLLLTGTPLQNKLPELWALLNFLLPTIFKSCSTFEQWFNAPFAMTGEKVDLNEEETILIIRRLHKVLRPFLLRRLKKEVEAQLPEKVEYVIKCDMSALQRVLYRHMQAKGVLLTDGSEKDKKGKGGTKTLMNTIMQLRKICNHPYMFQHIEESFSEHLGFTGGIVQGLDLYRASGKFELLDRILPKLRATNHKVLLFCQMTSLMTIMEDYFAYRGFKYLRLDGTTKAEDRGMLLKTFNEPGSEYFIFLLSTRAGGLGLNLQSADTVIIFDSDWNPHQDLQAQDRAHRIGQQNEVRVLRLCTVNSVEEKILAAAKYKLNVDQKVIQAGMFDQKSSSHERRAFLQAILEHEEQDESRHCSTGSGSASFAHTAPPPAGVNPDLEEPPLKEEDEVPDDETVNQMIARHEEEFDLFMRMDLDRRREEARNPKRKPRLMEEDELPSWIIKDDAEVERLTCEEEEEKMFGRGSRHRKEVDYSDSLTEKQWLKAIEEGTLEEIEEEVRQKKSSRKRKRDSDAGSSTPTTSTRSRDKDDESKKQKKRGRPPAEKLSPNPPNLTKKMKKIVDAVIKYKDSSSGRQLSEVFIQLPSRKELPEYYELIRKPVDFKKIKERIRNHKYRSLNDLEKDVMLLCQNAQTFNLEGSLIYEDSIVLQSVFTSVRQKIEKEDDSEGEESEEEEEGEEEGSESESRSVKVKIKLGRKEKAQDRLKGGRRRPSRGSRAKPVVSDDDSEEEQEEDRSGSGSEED
UniProt P51531, 2-1590 with tags or gaps: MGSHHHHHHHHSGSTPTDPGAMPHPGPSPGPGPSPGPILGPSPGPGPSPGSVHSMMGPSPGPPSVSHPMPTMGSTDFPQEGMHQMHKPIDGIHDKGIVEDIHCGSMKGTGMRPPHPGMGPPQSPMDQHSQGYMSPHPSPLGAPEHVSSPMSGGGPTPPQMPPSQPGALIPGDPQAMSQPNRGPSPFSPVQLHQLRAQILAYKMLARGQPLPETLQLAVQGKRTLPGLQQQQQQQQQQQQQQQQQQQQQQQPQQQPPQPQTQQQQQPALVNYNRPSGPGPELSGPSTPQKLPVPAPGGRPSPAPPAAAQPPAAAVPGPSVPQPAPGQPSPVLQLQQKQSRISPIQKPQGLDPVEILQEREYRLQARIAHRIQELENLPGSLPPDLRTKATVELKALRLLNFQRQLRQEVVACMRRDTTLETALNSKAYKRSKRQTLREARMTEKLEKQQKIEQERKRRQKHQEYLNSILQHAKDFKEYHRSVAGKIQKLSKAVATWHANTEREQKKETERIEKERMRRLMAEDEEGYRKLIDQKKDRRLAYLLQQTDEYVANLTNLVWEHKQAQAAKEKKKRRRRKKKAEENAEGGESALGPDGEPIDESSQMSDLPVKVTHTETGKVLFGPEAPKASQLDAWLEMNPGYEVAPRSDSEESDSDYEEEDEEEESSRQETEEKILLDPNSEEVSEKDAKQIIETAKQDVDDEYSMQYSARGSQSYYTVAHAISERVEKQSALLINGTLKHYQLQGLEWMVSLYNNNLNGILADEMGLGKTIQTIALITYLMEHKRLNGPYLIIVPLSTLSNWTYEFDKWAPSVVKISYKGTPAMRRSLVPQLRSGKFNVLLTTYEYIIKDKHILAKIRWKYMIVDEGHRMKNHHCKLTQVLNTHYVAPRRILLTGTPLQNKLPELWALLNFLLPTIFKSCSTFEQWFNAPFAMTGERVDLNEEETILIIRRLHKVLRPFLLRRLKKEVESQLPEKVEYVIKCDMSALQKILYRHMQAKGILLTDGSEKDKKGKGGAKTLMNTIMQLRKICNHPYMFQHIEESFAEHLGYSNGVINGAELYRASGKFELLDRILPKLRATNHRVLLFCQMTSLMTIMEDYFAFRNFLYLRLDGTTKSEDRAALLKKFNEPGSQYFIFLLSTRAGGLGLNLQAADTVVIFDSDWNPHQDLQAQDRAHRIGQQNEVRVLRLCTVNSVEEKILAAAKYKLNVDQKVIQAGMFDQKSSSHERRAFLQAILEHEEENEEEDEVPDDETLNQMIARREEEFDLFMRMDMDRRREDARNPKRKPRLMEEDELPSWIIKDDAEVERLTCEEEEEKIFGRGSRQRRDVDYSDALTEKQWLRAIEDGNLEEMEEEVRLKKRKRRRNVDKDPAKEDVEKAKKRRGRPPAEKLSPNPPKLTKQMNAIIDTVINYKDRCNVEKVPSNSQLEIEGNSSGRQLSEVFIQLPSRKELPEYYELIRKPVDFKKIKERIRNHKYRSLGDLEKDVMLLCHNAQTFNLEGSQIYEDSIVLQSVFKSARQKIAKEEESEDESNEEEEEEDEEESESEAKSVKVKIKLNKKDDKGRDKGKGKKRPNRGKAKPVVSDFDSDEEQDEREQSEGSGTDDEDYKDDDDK

The target of assay [2] is FL-SMARCA2 (full-length human SMARCA2 isoform 1) (Homo sapiens, UniProt P51531). The assay can be described thus: SMARCA2 ATPase activity assay (ADP-Glo, chicken mononucleosome substrate). The method, then: as §1, §2
Molecular Biology: Full-length human SMARCA2 isoform 1 (P51531) transcript clone was amplified from a cDNA library incorporating an N-terminal HIS tag (MGSHHHHHHHHSG) fused directly to Ser2 of SMARCA2 and a C-FLAG tag (YKDDDDK) fused directly to Glu1590 of SMARCA2. The amplified gene was subcloned into pFastBacI (Life Technologies).
Protein Expression: Recombinant baculovirus were generated and protein over-expression was accomplished by infecting exponentially growing Sf21 insect cell culture at 1.24×10^6 cell/ml with an MOI of 0.1. Infections were carried out for 76 hours, harvested by centrifugation, and stored at −80° C. for purification.
Expressed full-length SMARCA2 was purified from cell paste by FLAG affinity chromatography followed by anion exchange chromatography. The protein was dialyzed into a storage buffer containing 25 mM HEPES, 300 mM KCl, 10% Glycerol, pH 7.9, 1 mM TCEP and 0.01% Tween-20. The purity of the protein was measured as 74% using micro-capillary based gel electrophoresis.
The SMARCA2 or SMARCA4 ATPase assays were identical. The SMARCA2 or SMARCA4 ATPase assays were performed in a buffer consisting of 20 mM Bicine (pH 7.5), 10 mM KCl, 1 mM MgCl2, 1 mM TCEP, 0.005% BSG, and 0.002% Tween 20, prepared on the day of use. […]

The test system of assay [3] is A549 cells. The assay can be described thus: High-throughput proliferation (HTP) assay for A549 cells (CellTiter-Glo, 7 days). As to conditions: read-out: A549 SMARCA2 IC50. The method, then:
Thawing vials: A549 cells (ATCC #CCL-185™) were thawed from a cryovial containing approximately 1.6×10^6 cells frozen in 70% F12K medium, 20% HI-FBS and 10% DMSO. Cells were thawed by submerging the bottom half of the vial in a 37° C. water bath and gently flicked until almost thawed. The cells were transferred into a 15 mL conical tube containing 9 mL of F12K medium+10% HI-FBS and then centrifuged at 200×g for 4 min before drawing off the media without disturbing the cell pellet in order to remove the DMSO. The cells were resuspended again in 15 mL of F12K fresh complete media+10% HI-FBS and grown up in a T75 flask at 37° C. with 5% CO2 Incubator. Viability was measured to obtain baseline. […]
Day 0: Assay ready plates were prepared by dispensing 50 nL of compound or DMSO in the appropriate wells of 384-well white CulturPlates using Echo550. Using the Multiflo, A549 cells were plated at 50 μL/well in F12K complete media+10% HI-FBS+1% pen/strep at cell density determined [1,250 cells/mL (62.5 cells/well)] from growth curve.
Treated cells were incubated at 37° C., 5% CO2, relative humidity >90% for 7 days. […] Plates were incubated for 30 minutes in the dark at RT before measuring luminescence using the Envison2104. […]
For orientation: ATP-based viability assays read luminescence as a measure of living cells.

Assay [4] deals with H358 cells. In words: High-throughput proliferation (HTP) assay for H358 cells (CellTiter-Glo, 7 days). As to conditions: read-out: H358 SMARCA2 IC50. The method, then: Thawing vials: H358 cells (ATCC #CRL-5807™) were thawed from a cryovial containing approximately 1.6×10^6 cells frozen in 70% RPMI 1640 medium, 20% HI-FBS and 10% DMSO. Cells were thawed by submerging the bottom half of the vial in a 37° C. water bath and gently flicked until almost thawed. The cells were removed and transferred into a 15 mL conical tube containing 9 mL RPMI 1640 medium+10% HI-FBS and then centrifuged 200×g for 4 min before drawing off the media without disturbing the cell pellet to remove the DMSO. The cells were resuspended again in 15 mL of RPMI 1640 fresh complete media+10% HI-FBS and grown up in a T75 flask at 37° C. with 5% CO2 Incubator. Viability was measured to obtain baseline.
Preparing frozen stock vials: Cell density was counted in a stock flask. […]
Day 0: Assay ready plates were prepared by dispensing 50 nL of compound stock or DMSO in the appropriate wells of 384-well white CulturPlates using Echo550. Using the Multiflo, H358 cells at 50 μL/well were plated in RPMI 1640 complete media+10% HI-FBS+1% pen/strep at cell density determined [20,000 cells/mL (1,000 cells/well)] from growth curve. […]
Using the MultiDrop liquid handler, 30 μL of CTG were added per well. […] Plates were incubated for 30 minutes in the dark at RT before measuring luminescence using the Envison2104. […]

Setting [5] is: read-out: FL-SMARCA4 IC50, Table 3.2, enzyme 5 nM, ATP 250 uM, chicken mononucleosome 10 nM, 30 min preincubation.
The mark [6] stands for this setting: read-out: FL-SMARCA2 IC50, Table 3.1, enzyme 5 nM, ATP 250 uM, chicken mononucleosome 10 nM, 30 min preincubation.

Read-outs that look alike come from different tables or passages of the source. Where only a bound is given, the exact number is not on record here.

As for `O=C(Nc1cc(Cl)c(=O)n(CCF)c1)c1cc(Cl)c(Cl)[nH]1`, the values for the IC50 in assay [1] (setting [5]) and in assay [2] (setting [6]) were 1.27 µM and 0.276 µM, respectively.
For `CS(=O)(=O)Cc1cccc(C#Cc2cc(C(=O)Nc3cc(F)c(=O)n(CC(F)F)c3)sc2Cl)c1`, the IC50 was 3.78 µM in assay [3]; 0.191 µM in assay [1] (read-out: FL-SMARCA4 IC>50, Table 3c.2, enzyme 5 nM, ATP 250 uM, chicken mononucleosome 10 nM, 30 min preincubation); more than 10 µM in assay [4]; 0.0607 µM in assay [2] (read-out: FL-SMARCA2 IC50, Table 3c.1, enzyme 5 nM, ATP 250 uM, chicken mononucleosome 10 nM, 30 min preincubation).
Take `N#Cc1cc(C(=O)Nc2cc(F)c(=O)n(CC(F)(F)F)c2)oc1C#N`: the IC50 stood at 10.7 µM in assay [1] (setting [5]) and 2.03 µM in assay [2] (setting [6]).
Consider `O=C(Nc1cc(Cl)c(=O)n(CC(F)(F)F)c1)c1cc(Cl)c(Cl)[nH]1`, for which the figures for the IC50 in assay [1] (setting [5]) and in assay [2] (setting [6]) were 2.43 µM and 0.376 µM, respectively.
As for `N#Cc1cc(C(=O)Nc2cc(F)c(=O)n(CC(F)(F)F)c2)oc1Cl`, the IC50 in assay [1] (setting [5]) is more than 50 µM; in assay [2] (setting [6]) it was 21 µM.
